## Yeast mating assay B: variants of the scFv Ab-14

Data: MIT Lincoln Laboratory AlphaSeq set, Li et al. 2023, doi:10.1038/s41467-023-39022-2, as distributed in FLAb.

All variants were tested on one target, the spike HR2 peptide PDVDLGDISGINAS (SARS-CoV-2).

The variants keep the light chain, the linker and the frameworks of Ab-14 (scFv order VH, a 15-residue (Gly4Ser)3 linker, VL).
VH: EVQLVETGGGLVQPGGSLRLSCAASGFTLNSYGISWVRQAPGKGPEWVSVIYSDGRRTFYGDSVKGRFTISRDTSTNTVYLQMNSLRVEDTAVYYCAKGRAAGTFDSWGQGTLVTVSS
VL: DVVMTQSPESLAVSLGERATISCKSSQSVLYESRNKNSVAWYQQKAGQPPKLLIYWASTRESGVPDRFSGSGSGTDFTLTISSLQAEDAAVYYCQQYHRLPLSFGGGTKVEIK

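This is the validation round: designs drawn from the data on random variants, tested in the same kind of assay. Group labels follow the data file (Ctrl: baseline library sampled from a position-specific scoring matrix, with some repeated check sequences; Rand: our label for a block that the file lists under HC and that is probably the random mutants of the ten best first-round binders; En: ensemble of fine-tuned language models; GP: Gaussian process model; GPLM: also part of the Gaussian process libraries; HC: hill climbing; Gen: genetic algorithm; Gibbs: Gibbs sampling; a sequence that several methods proposed may carry one label only). AlphaSeq pools MATa yeast showing the antibodies with MATalpha yeast showing the peptide. Pairs that bind mate more often; barcode pairs of the diploids are counted by sequencing. Scores were corrected for input abundance and mapped to Kd with protein pairs of known affinity run in the same pool. The assay was run in six technical replicates.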

Each variant is given by its three heavy chain CDRs, as the data file delimits them; those of the parent are GFTLNSYGIS, VIYSDGRRTFYGDSVK, GRAAGTFDS.
Numbers give log10(Kd / nM), so 0 is 1 nM and 3 is 1 µM. Smaller is tighter.
The mean shown is taken over the replicates in which the pair was detected.
"nd" means that the variant was in the library but no mating with the target was seen in that replicate; the authors take this as a sign of poor binding, and no number exists.
Where one sequence has several entries in the source, the replicates are listed entry by entry, parted by semicolons.
As a blank, each scFv also met three strains without target: over all heavy chain designs, 1% of these pairings were detected, typically at 2.08 and seldom below 0.84.
A sequence measured in both rounds can read differently, since the two assays cover different ranges.
Of ten entries with the parent sequence, four were seen in most replicates (averages 0.34 to 2.37), three in one and three in none, so single entries are noisy.
The authors averaged sequences with at least three values out of six and counted those with two or fewer as poor binders.

CDR-H1	CDR-H2	CDR-H3	group	log10 Kd, replicates	log10 Kd (nM), mean
GFELNSYGIS	VIYSDGRRTEYIDSVK	GRAAGTFDS	GP_HC	1.13 1.01 1.41 1.53 1.66 1.55	1.38
GFDLNEYGIS	VIYADGMRTVYADSVK	GANAGTFDV	En_Gen	nd nd nd nd nd nd	nd
GFNLNSYGIS	VIYSDGRRTFYADSVK	GHVAGTFDS	GPLM_Gibbs	0.99 0.48 0.93 1.63 1.80 0.76	1.10
GFTRNSYGIS	VIYSDGRRTFYGDSVK	GRAAGGFDS	Ctrl	0.33 1.56 0.48 1.21 0.73 0.90	0.87
GFDLNEYGIS	VIYADGSRTFYSDSVK	GNQAGTFDE	En_HC	-0.27 -0.36 -0.92 -0.30 -0.18 0.20	-0.30
GFELNEYGIS	VIYSDGRRTFYGDSVK	GRGAGTFDL	Ctrl	nd nd 1.74 1.57 2.46 2.55	2.08
GFNLNSYGIS	VIYSDGRRTFYGDSVK	GWAAGTFDS	GPLM_Gibbs	1.03 nd nd 3.15 nd 1.34	1.84
GFTLNSYGIS	VIYSDGRRTFYADSVK	GQLAGTFDR	GPLM_HC	nd 1.54 0.57 0.70 0.13 0.76	0.74
GFDLDEYGIS	VIYADGKRTAYADDVK	GNVAGTFDT	En_Gen	0.16 0.12 -0.24 -0.37 -0.15 -0.16	-0.11
GFDLNEYGIS	VIYADGMRTFYADSVK	GEAGGTFDV	En_HC	0.19 0.46 0.22 0.04 0.86 -0.05	0.28
GFDLDEYGIS	VIYADGRRTFYADSVK	GELAGTFFD	En_HC	-0.12 -0.47 -0.66 -0.63 -0.40 -0.21	-0.42
GFSLNSYGIS	VIYADGRRTFYGDSVK	GRQAGTFDS	GPLM_Gen	0.15 0.17 0.58 -0.11 0.00 0.26	0.18
GFDLNEYGIS	VIYADGRRTFYTDSVK	GQLAGTFDI	En_HC	-0.15 -0.75 -0.74 -0.79 -0.31 -0.68	-0.57
GFELNSYGIS	VIYSDGRRTFYADKVK	GRTAGTFDS	GP_Gen	nd -0.03 1.29 1.86 1.35 0.70	1.03
GFTLNEYGIS	VIYSDGRRRFYTDSVK	GRAAGTFDS	GP_HC	0.36 0.22 -0.04 0.04 0.01 0.33	0.15
GFELNSYGIS	VIYSDGRRTFYVDSVK	GSTAGTFDT	GPLM_Gibbs	0.62 0.88 -0.85 -0.38 0.64 0.00	0.15
GFELNMYGIS	VIYSDGRRTFYGDSVK	GRTAGTFDS	GPLM_Gibbs	0.78 0.33 0.69 0.56 0.61 0.89	0.64
GFSLNSYGIS	VIYSDGRRTFYIDSVK	GRLAGEFDS	Ctrl	nd nd nd nd nd nd	nd
GFTLNSYGIS	VIYSDGRNTFYSDSVK	GRAGGTFDS	Rand	nd nd nd nd nd nd	nd
GFTLNSYGIS	VIYSDGYRTFYGDSVK	GYAAGTFDS	Ctrl	nd nd nd nd nd nd	nd
GFELNSYGIS	VIYADGRRTFYGDSVK	GRAAGTFDF	GP_Gibbs	0.33 -0.70 0.25 -0.48 -0.39 -0.14	-0.19
GFTLNSYGIS	VIYSDGRRTFYGDSVK	GQIAGTFDS	Ctrl+GPLM_Gibbs	1.42 1.01 1.35 1.00 2.18 1.03; 1.18 0.96 1.54 1.67 1.79 nd	1.38
GITLNSYGIS	VIYSDGRRTFYGDSSK	DHAAGTFDS	Ctrl	nd nd nd nd nd nd	nd
GFELNSYGIS	VIYSDGRRTFYEDSVK	GQLAGTFDS	GP_HC	0.79 0.53 0.55 0.56 0.97 0.61	0.67
GFDLEDYGIS	VIYADGRRTFYADSVK	GNVAGTFIQ	En_HC	-0.42 -0.04 -0.04 -0.52 -0.23 -0.23	-0.25
GFDLNEYGIS	VIYADGMRTAYADSVK	GGVAGTFDI	En_Gen	-0.42 -0.68 -0.95 -0.87 -0.82 -0.44	-0.70
GSDLNEYGIS	VIYADGHRVSYAENVK	GINMAGIFI	En_Gibbs	nd nd nd nd nd nd	nd
GFSLNSYGIS	VIYSDGRRTFYADSVK	GQEAGTFDK	GP_Gibbs	0.07 0.07 -0.11 -0.34 -0.04 -0.39	-0.12
GMSLDEYGIS	VIYADGNRQVYIDKVK	GNYGGDFIE	En_Gibbs	1.86 nd nd nd nd nd	1.86
GFTPNSYGIS	VIYADGRRTFYGDSVK	GRAAGTFES	Ctrl	nd nd nd nd nd nd	nd
GFTLNEYGIS	VIYSDGRRTFYGDSVK	GEAAGTFDN	GP_HC	1.64 0.93 1.15 0.89 0.88 0.99	1.08
GFNLNSYGIS	VIYSDGRRTFYLDSVK	GWTAGTFDS	GP_Gibbs	0.96 1.02 0.96 1.42 1.48 0.97	1.13
GFTLNDYGIS	VIYSDGRRTFYGDSVK	GRASGTFVS	Ctrl	nd nd nd nd nd nd	nd
GFDLDEYGIS	VIYADGQRTAYADNVK	GQVAGTFDV	En_Gen	-0.55 -0.05 -0.80 0.37 0.01 1.30	0.05
GFNLNSYGIS	VIYSDGRRTFYLDSVK	GRAAGTGDL	Ctrl	nd nd nd nd nd nd	nd
GFNLDEYGIS	VIYADGQRTAYAKNVK	GTTGMKRVV	En_Gibbs	nd nd nd nd nd nd	nd
GFTLNSYGIS	VIYSDGRRTFYSDSVK	GHAAGTFDK	GP_HC	1.85 0.58 0.39 0.22 1.13 0.69	0.81
EFTANDYGIS	VIYSDGRRTFYGDSKK	GRAALTFIS	Rand	nd nd nd nd nd nd	nd
GEDLDEYGIS	VIYADGLRTAYSDNFK	GNLGGQFDM	En_Gibbs	nd nd nd nd nd nd	nd
GFDLNEYGIS	VIYADGMRTAYIDSVK	GGNAGTFDV	En_Gen	-0.30 -0.18 -0.68 -0.67 -0.44 -0.45	-0.45
GFDLNEYGIS	VIYSDGRRTFYGDSVK	GQFAGTKDS	Ctrl	nd nd nd nd nd nd	nd
GFDLNEYGIS	VIYADGVRTSYADSVK	GQNAGTFDI	En_Gen	-0.83 -1.40 -1.26 -1.32 -0.21 -0.47	-0.92
GFDLDEYGIS	VIYADGKRTAYSDSVK	GEVAGTFDL	En_Gen	0.15 -0.61 -0.33 -0.26 -0.45 -0.29	-0.30
GFTLNEYGIS	VIYSDGRRTFYGDSVK	GQEAGTFDT	GPLM_Gen	-0.03 -0.25 0.15 -0.23 0.08 0.29	0.00
GVDIDEYGIS	VIYADGIRTFYIDKVK	GNVGGMFDT	En_Gibbs	0.84 0.79 0.29 0.20 0.39 1.37	0.65

The last 5 entries again:

CDR-H1	CDR-H2	CDR-H3	group	log10 Kd, replicates	log10 Kd (nM), mean
GFDLNEYGIS	VIYSDGRRTFYGDSVK	GQFAGTKDS	Ctrl	nd nd nd nd nd nd	nd
GFDLNEYGIS	VIYADGVRTSYADSVK	GQNAGTFDI	En_Gen	-0.83 -1.40 -1.26 -1.32 -0.21 -0.47	-0.92
GFDLDEYGIS	VIYADGKRTAYSDSVK	GEVAGTFDL	En_Gen	0.15 -0.61 -0.33 -0.26 -0.45 -0.29	-0.30
GFTLNEYGIS	VIYSDGRRTFYGDSVK	GQEAGTFDT	GPLM_Gen	-0.03 -0.25 0.15 -0.23 0.08 0.29	0.00
GVDIDEYGIS	VIYADGIRTFYIDKVK	GNVGGMFDT	En_Gibbs	0.84 0.79 0.29 0.20 0.39 1.37	0.65